Measurements reported in PMC4339887, “Selective Sirt2 inhibition by ligand-induced rearrangement of the active site” (Nature Communications, 2015).

Chains of the proteins cited; added tags and fusions are not shown.
UniProt Q13547, whole entry: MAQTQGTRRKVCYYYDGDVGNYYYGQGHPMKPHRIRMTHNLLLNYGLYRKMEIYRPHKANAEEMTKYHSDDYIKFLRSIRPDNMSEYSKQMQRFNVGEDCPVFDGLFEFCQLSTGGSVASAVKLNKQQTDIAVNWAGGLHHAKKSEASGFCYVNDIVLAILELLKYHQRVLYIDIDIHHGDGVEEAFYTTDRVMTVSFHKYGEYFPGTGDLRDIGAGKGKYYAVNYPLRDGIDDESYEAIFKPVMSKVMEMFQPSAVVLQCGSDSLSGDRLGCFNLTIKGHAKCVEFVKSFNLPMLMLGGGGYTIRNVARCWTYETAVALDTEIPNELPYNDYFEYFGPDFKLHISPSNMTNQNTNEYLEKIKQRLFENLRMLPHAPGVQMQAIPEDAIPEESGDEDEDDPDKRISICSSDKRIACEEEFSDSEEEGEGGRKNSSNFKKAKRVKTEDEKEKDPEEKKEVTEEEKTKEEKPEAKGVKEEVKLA

Experiments:
KDAC1 = molecular target: T1, KDAC1 (Homo sapiens, UniProt Q13547); test: in vitro KDAC1/6 assay, substrate ZMAL; type: biochemical
T1 construct: purchased Enzo Life Sciences
Procedure: (§1) 5 times), Fmoc deprotection and amino acid coupling were repeated until the last amino acid was coupled and the Fmoc group was removed. The resin was washed with dichloromethane (DCM, 3 min, 5 times), methanol (5 min, 3 times) and DCM (3 min, 5 times). […]
(§2) acid (TFA) at RT (1 h, 2 times). Cleaved peptide was precipitated with cold diethylether, filtrated and dried. The peptide was purified by semi-preparative HPLC (Merck-Hitachi High Speed LC system) using a Merck Hibar LiChrosorb RP-8 column (250–25 mm, 7 μm). For separation a linear gradient from 20–50% (vol/vol) acetonitrile (ACN) with 0.1% (vol/vol) TFA in 60 min was applied (flow-rate: 8 ml min-1). […]
(§3) high-throughput fluorescence-based assay using the substrate ZMAL (Z-Lys(Acetyl)- […]
(§4) A solution that contained DMSO was used a negative
(§5) The reaction was started through the addition of KDAC1 (Enzo Life Sciences, 10 μL) or […]
(§6) initial state conditions the substrate conversion was adjusted to 10–30% prior to inhibition tests. The reaction was stopped by the addition of a solution containing trypsin and TSA […]
(§7) Then fluorescence intensity of the released fluorophore of the deacetylated lysine derivative was measured in a microplate […]
(§8) reader (BMG Polarstar, Oex 390 nm, Oem 460 nm). The amount of inhibition was determined with respect to the mixture with only DMSO.
(§9) Immunocytochemistry equipment and settings. […]

KDAC6 = molecular target: T2, KDAC6 (Homo sapiens, UniProt Q9UBN7); test: in vitro KDAC1/6 assay, substrate ZMAL; type: biochemical
T2 construct: purchased Enzo Life Sciences
T2 sequence (Q9UBN7 1-1215): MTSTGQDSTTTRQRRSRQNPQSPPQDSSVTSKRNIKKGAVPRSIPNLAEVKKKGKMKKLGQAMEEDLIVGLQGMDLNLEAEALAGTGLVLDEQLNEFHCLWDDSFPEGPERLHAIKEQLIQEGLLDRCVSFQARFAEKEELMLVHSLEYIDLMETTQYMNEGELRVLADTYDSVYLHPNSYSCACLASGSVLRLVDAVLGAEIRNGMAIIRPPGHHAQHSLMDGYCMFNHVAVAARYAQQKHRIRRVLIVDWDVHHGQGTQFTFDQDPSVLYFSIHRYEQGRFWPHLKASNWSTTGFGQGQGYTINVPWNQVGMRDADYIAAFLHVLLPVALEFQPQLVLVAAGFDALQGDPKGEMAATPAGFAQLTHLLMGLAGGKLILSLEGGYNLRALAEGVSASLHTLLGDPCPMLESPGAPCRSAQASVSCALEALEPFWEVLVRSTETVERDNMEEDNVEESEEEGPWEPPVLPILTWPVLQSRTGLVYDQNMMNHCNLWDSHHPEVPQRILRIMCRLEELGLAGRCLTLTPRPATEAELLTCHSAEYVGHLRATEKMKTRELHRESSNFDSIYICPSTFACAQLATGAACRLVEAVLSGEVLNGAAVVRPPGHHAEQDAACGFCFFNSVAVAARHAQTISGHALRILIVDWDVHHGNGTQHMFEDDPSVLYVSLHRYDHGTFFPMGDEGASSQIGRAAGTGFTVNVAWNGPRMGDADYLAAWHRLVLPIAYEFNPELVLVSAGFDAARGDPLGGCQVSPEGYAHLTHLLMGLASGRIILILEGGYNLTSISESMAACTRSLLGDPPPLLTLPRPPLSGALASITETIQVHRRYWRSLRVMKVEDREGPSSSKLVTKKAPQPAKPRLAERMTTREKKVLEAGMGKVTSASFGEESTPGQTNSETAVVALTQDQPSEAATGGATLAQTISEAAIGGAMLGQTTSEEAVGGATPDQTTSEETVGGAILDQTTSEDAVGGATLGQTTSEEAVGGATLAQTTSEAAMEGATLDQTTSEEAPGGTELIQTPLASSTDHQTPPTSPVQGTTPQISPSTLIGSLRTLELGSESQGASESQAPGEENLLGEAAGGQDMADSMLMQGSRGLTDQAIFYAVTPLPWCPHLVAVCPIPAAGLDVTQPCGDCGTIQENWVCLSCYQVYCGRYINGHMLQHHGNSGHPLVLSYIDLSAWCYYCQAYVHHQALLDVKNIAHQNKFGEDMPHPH
Procedure: as §1, §2, §3, §4, §5, §6, §7, §8, §9

activity of KDAC1 (KDAC1): significantly inhibits | activity of KDAC6 (KDAC6): significantly inhibits
SMILES: CC(/C=C/C(=O)NO)=C\[C@@H](C)C(=O)c1ccc(N(C)C)cc1 [Trichostatin A, reference compound]
